{"sequences": {"note": "The chains behind the UniProt entries cited, without tags or fusion partners. Residues count along the entry.", "UniProt P25774, 115-331 limits assumed": "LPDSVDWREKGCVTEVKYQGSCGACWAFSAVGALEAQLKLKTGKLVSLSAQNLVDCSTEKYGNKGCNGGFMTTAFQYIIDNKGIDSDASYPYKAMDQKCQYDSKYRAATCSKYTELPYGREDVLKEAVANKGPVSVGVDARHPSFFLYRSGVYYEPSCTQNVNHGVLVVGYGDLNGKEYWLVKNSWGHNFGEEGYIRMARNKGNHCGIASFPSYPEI"}, "source": "patent US20080207683A1", "about": "“BIARYL-S[…]-PYRAZOLO-PYRIDINE MODULATORS OF CATHEPSIN S” (priority 2007, published 2008)", "target": "Human CatS (Homo sapiens, UniProt P25774)", "test": "CatS inhibition of hydrolysis of fluorescent substrate Z-Val-Val-Arg-AFC", "conditions": "read-out: CatS Ki^app; apparent Ki, Morrison equation fit of initial rates; 10 μM Z-Val-Val-Arg-AFC, pH 5.0, 1.5 nM CatS"}
{"compound": "COc1cccc(CNCCNC(=O)c2cccc(-c3cc(-c4nn(CCCN5CCCC5)c5c4CN(S(C)(=O)=O)CC5)ccc3Cl)c2)c1", "values": [{"measurement": "Ki", "result": 1390, "unit": "nM"}]}
